Key:
Panc-Tu-I cells = test: Real time cell analysis (RTCA) proliferation; type: cell-based, human; conditions: even at submicromolar concentrations
Description: (§1) Panc-TU-1, MiaPaCa-2, PANC-1 and BxPC-3 cell lines were cultured in DMEM supplemented with 10% fetal calf serum, 1% L-glutamine (PAN-Biotech) and 1% non-essential amino acids (PAN-Biotech). The cells were maintained in a humidified incubator at 37° C. and 5% CO2. For microscopy, cells were seeded in four-well Lab-Tek chambers (Thermo Scientific) in DMEM without phenol red, supplemented with 25 mM HEPES. Transfection was performed with either Effectene (Qiagen) or Lipofectamine 2000 (Invitrogen). RTCA measurements of Panc-TU-1, MiaPaCa-2, PANG-1 and BxPC-3 cell lines were performed on a Dual Plate xCELLigence instrument (Roche Applied Science, Indianapolis, Ind.). This device measures a dimensionless cell index which is based on impedance. Depending on the cell line 5×10^3-7.5×10^3 cells were seeded in each well of 16-well E-plate. After seeding, cells were allowed to settle for 15 min at room temperature before insertion into the xCELLigence instrument in a humidified incubator at 37° C. with 5% CO2. The cells were treated with the small-molecule inhibitors compound 16 (Deltasonamide 1) or compound 19 (Deltasonamide 2) after a growth period of approximately 24 h. […] The impedance was measured in 15 min intervals for up to 100 h. Assays were performed in triplicates, each containing two technical duplicates. The cell index was normalized to 1 at the time point of drug administration.

MiaPaCa-2 cells = test: Real time cell analysis (RTCA) proliferation; type: cell-based, human; conditions: even at submicromolar concentrations
Description: as §1

[1] = test system: colorectal cancer cell lines DiFi, HCT-116, Hke3, Hkh2, HT29 and SW480; test: Real time cell analysis (RTCA) proliferation of colorectal cancer cell lines; type: cell-based, human; conditions: even at lower micromolar concentrations
Description: and SW480 cell lines are maintained in DMEM (Dulbecco's modified Eagle medium, Sigma-Aldrich Biochemie GmbH, Taufkirchen, Germany) supplemented with 10% FCS (fetal calf serum), 2 mM L-glutamine (Sigma-Aldrich Biochemie GmbH, Taufkirchen, Germany), and 1% non-essential amino acids (NEAA; Sigma-Aldrich Biochemie GmbH, Taufkirchen, Germany), at 37° C. and 5% CO2 in a humidified incubator. HT29 cells (ATCC, American Type Culture Collection, […], Va., USA) are maintained in Ham's medium, supplemented with 10% FCS (fetal calf serum) and 1 mM L-glutamine (Sigma-Aldrich Biochemie GmbH, Taufkirchen, Germany), at 37° C. and 5% CO2 in a humidified incubator. RTCA measurements of HT29, […] and SW480 cell lines were performed using 16-well E-plates on a Dual Plate xCELLigence instrument (Roche Applied Science, Indianapolis, Ind.) in a humidified incubator at 37° C. with 5% CO2. This device measures the impedance-based cell index (CI), Continuous impedance measurements are monitored every 15 min for up to 300 hours. Blank measurements are performed with growth medium. Depending on the cell line 1×10^4-2×10^4 cells are plated in each well of 16-well E-plate for short-term measurements and 0.75-2×10^3 cells/well for long-term measurements. […]

in vitro = conditions: human, Caco-2, pH 6.5
Description: Caco-2 Permeability Assay:
The compound concentration was measured in the receiver as well as the donor well.

## CNc1nccc(CN(CC2CCNCC2)S(=O)(=O)c2ccc(S(=O)(=O)N(Cc3ccc(Cl)cc3)C3CCCC3)cc2)n1 [Compound 16, N1-(4-Chlorobenzyl)-N1-cyclopentyl-N4-((2-(methylamino)pyrimidin-4-yl)methyl)-N4-(piperidin-4-ylmethyl)benzene-1,4-disulfonamide]
Panc-Tu-I cells
  proliferation (RTCA): strongly reduced proliferation
MiaPaCa-2 cells
  proliferation (RTCA): strongly reduced proliferation
[1]
  proliferation (RTCA): strongly reduced proliferation
In vitro
  efflux ratio at 2 h, 10 μM: 8.8
